ChEMBL document CHEMBL4422679, “Unexpected equivalent potency of a constrained chromene enantiomeric pair rationalized by co-crystal structures in complex with estrogen receptor alpha” (Bioorg Med Chem Lett, 2019)

The chains behind the UniProt entries cited, without tags or fusion partners.
UniProt P03372, whole entry: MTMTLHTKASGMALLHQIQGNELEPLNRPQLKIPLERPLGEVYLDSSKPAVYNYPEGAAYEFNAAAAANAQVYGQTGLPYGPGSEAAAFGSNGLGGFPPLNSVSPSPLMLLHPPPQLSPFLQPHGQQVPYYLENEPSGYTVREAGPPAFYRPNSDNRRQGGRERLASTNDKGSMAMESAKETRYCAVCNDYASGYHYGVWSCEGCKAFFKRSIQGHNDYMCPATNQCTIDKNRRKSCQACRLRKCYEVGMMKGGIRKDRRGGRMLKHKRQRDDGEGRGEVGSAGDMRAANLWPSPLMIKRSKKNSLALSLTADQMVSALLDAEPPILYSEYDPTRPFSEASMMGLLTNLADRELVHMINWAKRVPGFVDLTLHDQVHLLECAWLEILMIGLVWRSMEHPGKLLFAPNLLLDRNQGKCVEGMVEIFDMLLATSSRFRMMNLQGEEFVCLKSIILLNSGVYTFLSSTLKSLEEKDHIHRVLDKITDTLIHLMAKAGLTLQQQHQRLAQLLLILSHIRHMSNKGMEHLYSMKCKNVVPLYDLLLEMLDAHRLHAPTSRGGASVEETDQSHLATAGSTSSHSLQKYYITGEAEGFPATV

Target: Estrogen receptor (Homo sapiens, UniProt P03372)

IC50 [nM] | Structure (SMILES)
0.055 | Oc1ccc2c(c1)O[C@@H](c1ccc(OCCN3CC(CF)C3)cc1)C1=C2CCOc2cc(O)ccc21
0.051 | C[C@@H](COc1ccc(C2Oc3cc(O)ccc3C3=C2c2ccc(O)cc2OCC3)cc1)N1CC[C@@H](CF)C1 (some centres not stated)
0.059 | Oc1ccc2c(c1)O[C@H](c1ccc(OCCN3CC(CF)C3)cc1)C1=C2CCOc2cc(O)ccc21
0.076 | Oc1ccc2c(c1)OC(c1ccc(OCCN3CC[C@@H](CF)C3)cc1)C1=C2CCOc2cc(O)ccc21 (some centres not stated)
0.045 | Oc1ccc2c(c1)OC(c1ccc(OCCN3CC(CF)C3)cc1)C1=C2CCOc2cc(O)ccc21 (racemic)
0.021 | Oc1ccc2c(c1)OCCC1=C2C(c2ccc(OCCN3CC(CF)C3)cc2)Oc2ccc(O)cc21 (stereo in doubt; 17a)
0.024 | Oc1ccc2c(c1)OCCC1=C2C(c2ccc(OCCN3CC(CF)C3)cc2)Oc2ccc(O)cc21 (stereo in doubt; 17b)
